Columns and labels:
[1] = Physico-chemical characteristics: solubility; conditions: solvent giving clear and colourless solution at 1 mg/ml
T-cells = conditions: reference: published literature; cited from earlier work
renal cell carcinoma = conditions: advanced RCC; cited from earlier work

Molecule: CC(C)C[C@H](NC(=O)[C@@H](N)Cc1ccccc1)C(=O)N1CCC[C@H]1C(=O)N[C@@H](CO)C(=O)N[C@@H](CC(=O)O)C(=O)N[C@@H](Cc1ccccc1)C(=O)N[C@@H](Cc1ccccc1)C(=O)N1CCC[C@H]1C(=O)N[C@@H](CO)C(=O)N[C@H](C(=O)O)C(C)C [IMA-HBV-001, reference compound]
- Solubility (Clear and colourless solution 1 mg/ml) [1]: 10% acetic acid
- In vitro immunogenicity (assay by which shown) (T-cells): Killer assay

Molecule: IL-2: Interleukin-2, immunological treatment of advanced RCC
- patients achieving durable complete remissions (renal cell carcinoma): approximately 5%
